In test [1] the target is T1, human β-Secretase (sBACE-Fc, soluble part AA 1-AA 460) (Homo sapiens (Human), UniProt P56817). The test can be described thus: Diluted TR-FRET assay. The format is biochemical. The note with it: IC50 from the diluted FRET assay (footnote a): 50 times less enzyme, 6.5 h reaction time. As to the method:
[…] Enzyme and compound in dimethylsulphoxide (final DMSO concentration 5%) was mixed and pre-incubated for 10 minutes at RT. […] The reaction was stopped with the addition of 0.35 vol Stop solution (NaAcetate, pH 9). The fluorescence of the product was measured on a Victor II plate reader with excitation wavelengths of 340-485 nm and emission wavelengths of 590-615 nm. […] The dimethylsulphoxide control, instead of test compound, defined the 100% activity level and 0% activity was defined by wells lacking enzyme (replaced with reaction buffer) or by a saturating dose of a known inhibitor, 2-amino-6-[3-(3-methoxyphenyl)phenyl]-3,6-dimethyl-5H-pyrimidin-4-one.

Chains of the proteins cited; added tags and fusions are not shown. Residues count along the entry.
UniProt P56817, 22-460: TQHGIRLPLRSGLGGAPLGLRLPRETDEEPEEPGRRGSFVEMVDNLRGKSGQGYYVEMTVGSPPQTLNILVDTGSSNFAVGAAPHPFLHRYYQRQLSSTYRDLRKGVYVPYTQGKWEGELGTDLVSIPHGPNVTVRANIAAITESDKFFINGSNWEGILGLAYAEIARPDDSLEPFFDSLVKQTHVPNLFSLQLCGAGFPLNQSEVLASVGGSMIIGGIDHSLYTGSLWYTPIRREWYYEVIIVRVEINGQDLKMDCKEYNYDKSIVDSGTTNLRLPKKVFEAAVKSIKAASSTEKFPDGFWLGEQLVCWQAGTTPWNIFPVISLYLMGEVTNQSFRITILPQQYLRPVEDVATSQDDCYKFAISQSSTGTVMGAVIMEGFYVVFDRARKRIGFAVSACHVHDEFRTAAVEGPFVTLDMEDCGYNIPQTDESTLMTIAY

Test [2] deals with T1, human β-Secretase (sBACE-Fc, soluble part AA 1-AA 460). The test can be described thus: TR-FRET assay. Type of test: biochemical. To be noted: standard TR-FRET assay (values without footnote a). Here is the method:
The β-secretase enzyme used in the TR-FRET is prepared as follows:
The enzyme (truncated form) was diluted to 6 μg/mL (stock 1.3 mg/mL) and the TruPoint BACE1 Substrate to 200 nM (stock 120 μM) in reaction buffer (NaAcetate, chaps, triton x-100, EDTA pH4.5). Enzyme and compound in dimethylsulphoxide (final DMSO concentration 5%) was mixed and pre-incubated for 10 minutes at RT. Substrate was then added and the reaction was incubated for 15 minutes at RT. The reaction was stopped with the addition of 0.35 vol Stop solution (NaAcetate, pH 9). The fluorescence of the product was measured on a Victor II plate reader with excitation wavelengths of 340-485 nm and emission wavelengths of 590-615 nm. […] The dimethylsulphoxide control, instead of test compound, defined the 100% activity level and 0% activity was defined by wells lacking enzyme (replaced with reaction buffer) or by a saturating dose of a known inhibitor, 2-amino-6-[3-(3-methoxyphenyl)phenyl]-3,6-dimethyl-5H-pyrimidin-4-one.

Turning to `CO[C@H]1CC[C@]2(CC1)Cc1ccc(C#CC3CCC3)cc1[C@]21N=C(C)C(N)=N1` (single isomer, unassigned; isomer 1) [7, isomer 1], the IC50 in test [1] is 2.7 nM. Still for that read-out and setting: the result for `CO[C@H]1CC[C@]2(CC1)Cc1ccc(C#CC(C)C)cc1[C@]21N=C(C)C(N)=N1` (single isomer, unassigned; isomer 1) [9, isomer 1] reads 1.1 nM; that for `CO[C@H]1CC[C@]2(CC1)Cc1ccc(OCCC(F)(F)F)cc1[C@@]21N=C(C)C(N)=N1` (single isomer, unassigned; isomer 1) [11, isomer 1], 4.7 nM. In test [2], `CO[C@H]1CC[C@]2(CC1)Cc1ccc(OCCC(F)(F)F)cc1[C@]21N=C(C)C(N)=N1` (single isomer, unassigned; isomer 2) [11, isomer 2] showed an IC50 of 1600 nM. The same measure, in the same setting: the figure for `CC[C@@H](C)Oc1ccc2c(c1)C1(N=C(C)C(N)=N1)[C@]1(CC[C@H](OC)CC1)C2` (some centres unmarked) [Example 18, (1r,4r)-6′-[(28)-Butan-2-yloxy]-4-methoxy-5″-methyl-3′H-dispiro[cyclohexane-1,2′-indene-1′,2″-imidazol]-4″-amine] is 89 nM.
